Results reported in ChEMBL document CHEMBL1138481, “Compounds binding to the S2-S3 pockets of thrombin” (J Med Chem, 2009).

Test: Inhibition of human alpha thrombin by surface plasmon resonance assay

With CCCNC(=O)[C@@H]1CCCN1C(=O)[C@H](N)C(c1ccccc1)c1ccccc1 as the compound, how does the Kd read?
The Kd was 3.1 µM.
